Some targets named below: Carbonic anhydrase 9 (Homo sapiens, UniProt Q16790); Carbonic anhydrase 1 (Homo sapiens, UniProt P00915); Carbonic anhydrase 2 (Homo sapiens, UniProt P00918).

In general, Ki refers to a dissociation constant, usually derived from enzyme kinetics or from competition with a known ligand. Low readings indicate tighter binding, high ones weaker binding. With `NS(=O)(=O)c1ccc(CCNC(=O)CN(CC(=O)NO)S(=O)(=O)c2ccc(-c3ccccc3)cc2)cc1`, the Ki at Carbonic anhydrase 9 was 0.013 µM; on Carbonic anhydrase 1 it was 2.49 µM; on Carbonic anhydrase 2, 0.035 µM.
On the same counts, the results for `NS(=O)(=O)c1ccc(CCNC(=O)CN(CC(=O)NO)S(=O)(=O)c2ccc(Oc3ccccc3)cc2)cc1` are 0.012 µM, 0.095 µM and 0.065 µM.

The values above are taken from ChEMBL document CHEMBL1151743, “Dual inhibitors of matrix metalloproteinases and carbonic anhydrases: iminodiacetyl-based hydroxamate-benzenesulfonamide conjugates” (J Med Chem, 2008).
